Values of other authors, collected in US8236527B2, “Recombinant production of authentic human proteins using human cell expression systems” (Humanzyme Limited, priority 2008, dated 2012).

System: Vesicular Stomatitis virus
Conditions: cited from earlier work

In the case of “Rebif: a recombinant interferon-beta-1a product”, the “specific activity (antiviral activity)” value is given as “approximately 270 million international units (MW) of antiviral activity per mg of interferon beta-1a”.
